These results are taken from patent publication US20210340500A1, “METHOD FOR PRODUCING INTESTINAL CELLS FROM PLURIPOTENT STEM CELLS” (TOKYO INSTITUTE OF TECHNOLOGY, priority 2018, published 2021).

For this assay, the system named is BCRP and P-gp. The conditions noted are these: 20 μM elacridar.

Molecules are shown by their SMILES.

Turning to `COc1cc2c(cc1OC)CN(CCc1ccc(NC(=O)c3cccc4c(=O)c5cccc(OC)c5[nH]c34)cc1)CC2` [elacridar], the “effect of inhibitor on directional transport of prazosin” value was “the B-to-A transport of prazosin was decreased but the A-to-B transport was increased”.
